Drawing on PubChem BioAssay AID1188 (EPA DSSTox, 2008), this text covers Potency for three molecules.

This data set relates to Fathead minnow (Pimephales promelas) acute toxicity, lethality. Nature of the data set: DSSTox (EPAFHM) EPA Fathead Minnow Acute Toxicity.

For `CC(C)N(CCO)C(C)C`, the Potency is 1380 µM.
As for `O=[N+]([O-])c1cccc([N+](=O)[O-])c1O`, the figure is 216 µM.
On to `Cc1ccc([N+](=O)[O-])cc1[N+](=O)[O-]`, for which the Potency is 133 µM.
